The source of these data is the NIST ThermoML archive (doi:10.1021/je200628n).

The data set can be described thus: activity coefficient (dimensionless); of the first substance listed, at infinite dilution; xn = mol fraction of the nth substance listed. As to conditions: 101 kPa, Liquid, Chromatography, x1 = 0.

± gives the expanded uncertainty stated by the source.

With `CCCCOCCCC` [dibutyl ether] + NCCCCCCCCCCCCN, the activity coefficient is 8.93 ± 0.46 (348.25 K), 8.47 ± 0.44 (353.15 K), 7.9 ± 0.41 (358.25 K) and 7.45 ± 0.38 (363.21 K).
With `CCCCOCCCC` [dibutyl ether] + NCCCCCCCCN, the activity coefficient is, setting by setting: (328.15 K) 8.79 ± 0.45; (338.15 K) 7.79 ± 0.4; (343.15 K) 7.42 ± 0.38; (348.15 K) 7.18 ± 0.37.
As to `CCCCOCCCC` [dibutyl ether] + NCCCCCCCCCCN, the activity coefficient came to 7.94 ± 0.41 (338.2 K), 7.5 ± 0.39 (348.15 K) and 7.39 ± 0.38 (353.22 K).
